According to PubChem BioAssay AID371 (SRMLSC, 2006):
Only a part is listed here, and it is no random draw. Calls of active or inactive are those of the source.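 How the source made its calls: active means mean growth inhibition over the two runs of 50% or more; inactive means mean growth inhibition under 50%.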

Test: A549 NSCLC cell proliferation inhibitors – ATP luminescence, human non-small cell lung line, primary screen (AID 371);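 further: compound exposure lasted 72 h before the ATP read; 0% = untreated cell signal and 100% = no luminescence left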
Conditions: at 10 µM, active compounds read high
For CCN(CC)CC(O)COC(=O)C(O)(c1ccccc1)C1CCCCC1 (stereo unspecified), the growth inhibition was inactive: 6.69%.
